Measurements published in ChEMBL document CHEMBL1129385, “Aspartic acid conjugates of 2-(3,4-dichlorophenyl)-N-methyl-N-[(1S)-1(3-aminophenyl)-2-(1-pyrrolidi nyl) ethyl]acetamide: kappa opioid receptor agonists with limited access to the central nervous system” (J Med Chem, 1996).
Activity calls are given as the source filed them. The calls are words filed in the database; no cut-off is given here.

Sequences of proteins named here, by UniProt entry; tags and fusion partners are left off. A change or cut given only in a name is not applied to a line headed by its entry.
UniProt P41145: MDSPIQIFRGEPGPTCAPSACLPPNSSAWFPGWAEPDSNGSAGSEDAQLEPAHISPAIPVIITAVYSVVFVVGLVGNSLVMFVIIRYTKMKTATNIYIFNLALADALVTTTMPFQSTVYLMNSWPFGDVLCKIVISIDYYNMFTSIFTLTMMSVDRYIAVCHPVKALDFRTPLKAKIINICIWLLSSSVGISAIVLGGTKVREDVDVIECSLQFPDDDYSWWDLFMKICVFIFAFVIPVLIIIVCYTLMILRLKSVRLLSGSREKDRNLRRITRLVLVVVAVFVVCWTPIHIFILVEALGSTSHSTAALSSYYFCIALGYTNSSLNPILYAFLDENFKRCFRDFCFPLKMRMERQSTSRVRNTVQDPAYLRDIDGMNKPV
UniProt P41143, whole entry, looked up: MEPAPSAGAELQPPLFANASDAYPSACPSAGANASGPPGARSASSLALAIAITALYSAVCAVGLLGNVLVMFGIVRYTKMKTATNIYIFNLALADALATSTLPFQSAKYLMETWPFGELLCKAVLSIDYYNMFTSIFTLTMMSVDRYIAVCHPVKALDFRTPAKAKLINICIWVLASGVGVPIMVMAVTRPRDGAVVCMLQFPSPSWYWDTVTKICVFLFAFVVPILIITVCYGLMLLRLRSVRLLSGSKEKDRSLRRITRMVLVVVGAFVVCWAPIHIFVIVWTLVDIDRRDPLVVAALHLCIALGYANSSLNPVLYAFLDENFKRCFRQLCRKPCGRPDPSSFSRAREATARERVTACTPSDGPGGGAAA
UniProt P35372, whole entry, looked up: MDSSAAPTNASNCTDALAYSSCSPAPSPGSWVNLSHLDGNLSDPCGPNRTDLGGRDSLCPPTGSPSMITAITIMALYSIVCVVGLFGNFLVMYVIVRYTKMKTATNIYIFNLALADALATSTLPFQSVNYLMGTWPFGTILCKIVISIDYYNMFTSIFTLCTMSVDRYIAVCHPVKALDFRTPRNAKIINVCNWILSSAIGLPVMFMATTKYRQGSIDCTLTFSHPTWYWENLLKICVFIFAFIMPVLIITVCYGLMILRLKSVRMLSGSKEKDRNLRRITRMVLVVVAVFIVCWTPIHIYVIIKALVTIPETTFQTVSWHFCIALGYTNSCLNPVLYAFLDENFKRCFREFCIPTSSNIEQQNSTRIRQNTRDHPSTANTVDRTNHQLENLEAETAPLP

Experiments:
[1] = biological target: Kappa-type opioid receptor (Homo sapiens) (UniProt P41145); experiment: Compound was tested for the nor-BNIb kappa receptors Selectivity of Antinociception in the Mouse Abdominal Stretch Assay by using antagonists; ED50 ratio; conditions: Abdomen
[2] = biological target: Delta-type opioid receptor (Homo sapiens) (UniProt P41143); experiment: Compound was tested for the NTI Delta receptor Selectivity of Antinociception in the Mouse Abdominal Stretch Assay by using antagonists; ED50 ratio; conditions: Abdomen
[3] = biological target: Mu-type opioid receptor (Homo sapiens) (UniProt P35372); experiment: Compound was tested for the beta-FNA Mu receptors Selectivity of Antinociception in the Mouse Abdominal Stretch Assay by using antagonists; ED50 ratio; conditions: Abdomen
Mus musculus [4] = experiment: Peak time for Antinociception Tail-flick(min) by icv administration in mice;NE= no effect
Mus musculus [5] = experiment: Peak time for Antinociception Tail-flick(min) by iv administration in mice;NE= no effect

Structure (SMILES)	Ratio [1]	Ratio [2]	Ratio [3]	TIME (Mus musculus [4])	TIME (Mus musculus [5])
CN(C(=O)Cc1ccc(Cl)c(Cl)c1)[C@H](CN1CCCC1)c1cccc(NC(=O)[C@@H](N)CC(=O)O)c1	5	0.92	2.86	–	–
CN(C(=O)Cc1ccc(Cl)c(Cl)c1)[C@H](CN1CCCC1)c1cccc(NC(=O)[C@H](N)CC(=O)O)c1	1.69	0.55	1.75	inactive	inactive
CN(C(=O)Cc1ccc(Cl)c(Cl)c1)[C@H](CN1CCCC1)c1cccc(NC(=O)C[C@H](N)C(=O)O)c1	7.14	1.01	2.56	–	–
